Reference: patent publication US20110144137A1, “METHOD FOR PREVENTING OR ALLEVIATING THE NOXIOUS EFFECTS RESULTING FROM TOXICANT EXPOSURE” (published 2011)
Read-outs that look alike come from different tables or passages of the source.

Amino acid sequences for entries named in this document (tags omitted).
UniProt O75762, whole entry, looked up: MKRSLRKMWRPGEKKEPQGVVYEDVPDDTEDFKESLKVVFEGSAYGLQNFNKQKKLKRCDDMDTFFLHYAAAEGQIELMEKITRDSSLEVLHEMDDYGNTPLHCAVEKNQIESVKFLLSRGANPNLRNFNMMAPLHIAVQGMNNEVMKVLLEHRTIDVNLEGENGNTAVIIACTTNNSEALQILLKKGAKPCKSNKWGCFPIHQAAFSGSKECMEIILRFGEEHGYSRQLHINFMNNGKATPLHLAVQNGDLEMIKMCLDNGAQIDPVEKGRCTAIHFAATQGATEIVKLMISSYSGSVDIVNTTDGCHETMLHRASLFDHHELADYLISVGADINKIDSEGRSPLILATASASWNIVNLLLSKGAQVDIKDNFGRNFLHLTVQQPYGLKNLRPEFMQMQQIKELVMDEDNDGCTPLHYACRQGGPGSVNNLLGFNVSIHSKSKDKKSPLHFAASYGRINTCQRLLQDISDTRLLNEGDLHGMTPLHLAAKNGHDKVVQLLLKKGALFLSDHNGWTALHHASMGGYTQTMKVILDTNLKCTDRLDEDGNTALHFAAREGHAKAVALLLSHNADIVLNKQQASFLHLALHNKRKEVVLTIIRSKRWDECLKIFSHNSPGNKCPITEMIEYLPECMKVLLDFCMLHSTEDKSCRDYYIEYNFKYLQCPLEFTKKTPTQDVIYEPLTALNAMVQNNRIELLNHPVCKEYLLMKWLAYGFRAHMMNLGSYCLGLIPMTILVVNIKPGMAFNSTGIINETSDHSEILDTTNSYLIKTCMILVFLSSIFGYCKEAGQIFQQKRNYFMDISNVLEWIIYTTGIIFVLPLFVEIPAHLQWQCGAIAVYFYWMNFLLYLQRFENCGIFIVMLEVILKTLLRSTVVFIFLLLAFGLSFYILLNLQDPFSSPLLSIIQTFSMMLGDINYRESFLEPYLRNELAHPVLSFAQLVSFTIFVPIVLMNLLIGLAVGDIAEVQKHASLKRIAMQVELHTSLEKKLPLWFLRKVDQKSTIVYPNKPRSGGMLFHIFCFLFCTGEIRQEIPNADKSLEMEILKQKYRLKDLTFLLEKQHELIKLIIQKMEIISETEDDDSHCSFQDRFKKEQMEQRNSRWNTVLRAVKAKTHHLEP
UniProt Q8BLA8, whole entry, looked up: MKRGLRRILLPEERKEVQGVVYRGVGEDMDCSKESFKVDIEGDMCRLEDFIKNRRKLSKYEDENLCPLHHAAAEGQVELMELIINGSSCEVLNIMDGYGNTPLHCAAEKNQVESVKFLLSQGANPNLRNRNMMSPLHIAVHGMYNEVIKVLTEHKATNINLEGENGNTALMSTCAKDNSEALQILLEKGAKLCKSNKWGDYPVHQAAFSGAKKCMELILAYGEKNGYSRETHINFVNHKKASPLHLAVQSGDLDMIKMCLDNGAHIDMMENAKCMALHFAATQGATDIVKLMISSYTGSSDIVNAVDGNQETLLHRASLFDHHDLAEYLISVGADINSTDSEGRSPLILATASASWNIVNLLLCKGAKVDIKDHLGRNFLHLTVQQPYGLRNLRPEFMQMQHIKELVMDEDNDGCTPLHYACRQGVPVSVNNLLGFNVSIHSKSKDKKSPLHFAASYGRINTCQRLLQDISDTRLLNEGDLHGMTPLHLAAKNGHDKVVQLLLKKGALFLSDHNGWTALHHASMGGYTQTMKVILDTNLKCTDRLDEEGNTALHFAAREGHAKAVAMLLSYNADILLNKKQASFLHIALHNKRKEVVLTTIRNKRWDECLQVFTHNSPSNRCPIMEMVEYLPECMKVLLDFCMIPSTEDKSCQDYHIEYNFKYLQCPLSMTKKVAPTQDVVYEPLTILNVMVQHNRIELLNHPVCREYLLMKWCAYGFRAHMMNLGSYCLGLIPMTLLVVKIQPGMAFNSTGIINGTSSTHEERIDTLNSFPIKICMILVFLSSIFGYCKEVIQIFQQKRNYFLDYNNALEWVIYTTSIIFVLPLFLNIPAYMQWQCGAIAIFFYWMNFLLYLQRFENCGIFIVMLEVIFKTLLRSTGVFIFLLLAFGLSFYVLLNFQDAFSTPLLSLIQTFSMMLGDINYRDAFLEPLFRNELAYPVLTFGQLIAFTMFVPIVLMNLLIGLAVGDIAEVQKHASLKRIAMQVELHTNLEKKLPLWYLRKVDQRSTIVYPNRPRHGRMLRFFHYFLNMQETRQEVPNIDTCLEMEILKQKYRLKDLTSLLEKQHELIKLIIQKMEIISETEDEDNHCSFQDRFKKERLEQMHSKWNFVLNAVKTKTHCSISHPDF
UniProt O35433, whole entry, looked up: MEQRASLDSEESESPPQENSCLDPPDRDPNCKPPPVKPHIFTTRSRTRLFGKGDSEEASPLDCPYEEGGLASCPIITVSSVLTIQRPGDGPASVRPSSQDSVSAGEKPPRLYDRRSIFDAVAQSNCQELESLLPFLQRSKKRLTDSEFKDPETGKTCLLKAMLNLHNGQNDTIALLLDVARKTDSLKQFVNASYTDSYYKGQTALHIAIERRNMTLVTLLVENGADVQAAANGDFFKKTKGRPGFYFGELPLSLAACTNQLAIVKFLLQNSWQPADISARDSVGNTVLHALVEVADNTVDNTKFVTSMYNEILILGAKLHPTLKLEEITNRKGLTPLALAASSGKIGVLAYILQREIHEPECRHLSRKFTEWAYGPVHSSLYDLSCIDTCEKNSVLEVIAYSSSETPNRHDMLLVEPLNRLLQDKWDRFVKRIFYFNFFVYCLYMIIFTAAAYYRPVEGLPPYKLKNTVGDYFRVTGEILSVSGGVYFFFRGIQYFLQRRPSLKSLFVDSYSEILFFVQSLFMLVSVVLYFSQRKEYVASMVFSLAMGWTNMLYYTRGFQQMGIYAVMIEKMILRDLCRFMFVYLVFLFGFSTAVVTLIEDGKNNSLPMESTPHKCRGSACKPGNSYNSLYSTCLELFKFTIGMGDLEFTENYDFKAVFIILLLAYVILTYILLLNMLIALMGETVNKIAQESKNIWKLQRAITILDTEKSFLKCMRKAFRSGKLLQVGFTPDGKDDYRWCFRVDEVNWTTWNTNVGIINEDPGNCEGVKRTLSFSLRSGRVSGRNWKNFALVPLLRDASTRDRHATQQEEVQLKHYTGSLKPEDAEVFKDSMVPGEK

What was measured:
[1] = tested on: mouse DRG neurons; details: for Ca2+-influx into a subset of DRG neurons: 100 μM each (CR 300 μM); for EC50: [Ca2+]i as % of maximal [Ca2+]i by 100 μM mustard oil
[2] = biological target: T1, TRPA1 (Homo sapiens, UniProt O75762); details: cited from earlier work; for activation of TRPA1 by mustard oil and other reactive chemical stimuli in vitro: references 35, 60
[3] = tested on: TRPA1; details: cultured sensory neurons and heterologous cells
[4] = biological target: native TRPA1 (Mus musculus, UniProt Q8BLA8); assay: Antagonist inhibition of isocyanate or tear gas agent-activated Ca2+-influx into mouse DRG neurons; details: for CS-induced neuronal Ca2+-influx: 10 μM CS, antagonist 25 μM; for IC50: mouse DRG neurons, % of 5 μM capsaicin
[5] = tested on: mouse DRG neurons; assay: Whole-cell patch-clamp of mouse DRG neurons (CN-induced TRPA1-like currents); details: 100 μM CN; ruthenium red 10 μM
[6] = tested on: isolated guinea pig bronchi; details: reference 21; cited from earlier work
[7] = tested on: mouse trigeminal ganglia neurons; assay: Fura-2 Ca2+ imaging of mouse trigeminal ganglia neurons; details: 100 μM
[8] = tested on: C57/B16 wild-type mice; assay: Nocifensive responses after application of toxicant to the mouse eye
[9] = tested on: hTRPA1 mutant C619, C639, C663, K708; assay: Ca2+ imaging of hTRPA1 mutant 3CK (C619, C639, C663, K708) in HEK-293t cells; details: 100 μM each (CR 300 μM); % of [Ca2+]i by 300 μM carvacrol
[10] = tested on: TRPA1-deficient neurons; assay: Fura-2 Ca2+ imaging of DRG neurons from Trpa1-/- mice; details: capsaicin response normal
[11] = biological target: T1, TRPA1; assay: Fura-2 Ca2+ imaging: toxicant-activated Ca2+-influx into hTRPA1-transfected HEK293t cells; details: for activation of TRPA1 expressed in HEK293t cells: fluorescent Ca2+ imaging; for potency on TRPA1 relative to mustard oil: hTRPA1 HEK293t cells; for EC50: read-out: EC50 of Ca2+-influx into hTRPA1-transfected HEK293t cells, [Ca2+]i as % of maximal [Ca2+]i by 100 μM mustard oil
[12] = tested on: hTRPA1 mutant K708; assay: Ca2+ imaging of hTRPA1 mutant K (K708) in HEK-293t cells; details: 100 μM each (CR 300 μM); % of [Ca2+]i by 300 μM carvacrol
[13] = biological target: T1, TRPA1; details: -40 mV
[14] = tested on: Trpa1-/- mice; assay: Eye nocifensive responses of Trpa1-/- versus wild-type mice; details: 100 mM CN or CS, 200 mM HDI
[15] = tested on: hTRPA1 mutant C619, C639, C663; assay: Ca2+ imaging of hTRPA1 mutant 3C (C619, C639, C663) in HEK-293t cells; details: 100 μM each (CR 300 μM); % of [Ca2+]i by 300 μM carvacrol
[16] = biological target: rTRPV1 (Rattus norvegicus, UniProt O35433); assay: Fura-2 Ca2+ imaging of rTRPV1-transfected HEK293t cells; details: 100 μM each (CR 300 μM); % of 5 μM capsaicin
[17] = biological target: TRPA1 (Mus musculus, UniProt Q8BLA8); assay: Block of noxious effects of toxicants in vivo (summary)
[18] = tested on: C57/B16 wild-type mice; assay: Nocifensive responses after intraplantar injection of toxicant into the mouse hind paw; details: HC-030031 100 mg/kg i.p., about one hour before; intraplantar HDI 6 mM or CN 4 mM
[19] = read-out: EC50 of Ca2+-influx into AIC-sensitive mouse DRG neurons

Molecule: 1-O-octadecyl-2-O-methyl-sn-glycero-3-phosphoryl-choline
- effect of PLC-inhibitor on toxicant-activated neuronal Ca2+-influx ([1]; ET-18-OCH3 4 μM, MIC, HDI, CN, CS, CR): did not diminish

Molecule: CC(=C\c1ccc(Cl)cc1)/C(C)=N/O
- activation of TRPA1 by mustard oil and other reactive chemical stimuli in vitro [2]: blocked
- block of activation of TRPA1 by various toxicants [3]: block activation of TRPA1
- CS-induced neuronal Ca2+-influx [4]: blocked

Molecule: CN=C=S
- agonism of TRPA1 in vitro in comparison to mustard oil ([2]; reference 29): only a weak agonist

Molecule: ammoniated ruthenium oxychloride
- block of CN-induced membrane currents [5]: efficiently blocked
- block of activation of TRPA1 by various toxicants [3]: block activation of TRPA1
- isocyanate-induced contraction of isolated guinea pig bronchi [6]: inhibits

Molecule: O=C=NCCCCCCN=C=O
- Ca2+-influx into TG neurons [7]: rapid increase in [Ca^2+]i
- nocifensive responses upon application to the mouse eye ([8]; 100 mM each, untreated mice): immediate nocifensive responses
- response of mutant 3CK [9]: significant activity
- increase in [Ca2+]i in TRPA1-deficient neurons [10]: failed to respond
- activation of TRPA1 expressed in HEK293t cells [11]: strongly activated
- potency on TRPA1 relative to mustard oil [11]: comparable to the chemically similar mustard oil
- EC50 [11]: 2.6 µM
- response of lysine mutant (K) [12]: activated
- single channel conductance ([13]; cell-attached, HDI-activated, absence of Ca2+): 127±4 pS
- single channel conductance ([13]; cell-attached, HDI-activated, presence of 2 mM Ca2+): 51±2 pS
- nocifensive responses in Trpa1-/- mice after eye application [14]: significantly abated
- Ca2+-influx into a subset of DRG neurons [1]: rapid increase in [Ca^2+]i
- EC50 [1, 19]: 8.4 µM
- response of mutant 3C [15]: did not greatly affect the efficacy

Molecule: CN=C=O
- Ca2+-influx into TG neurons [7]: rapid increase in [Ca^2+]i
- response of mutant 3CK [9]: dramatically reduced or eliminated
- increase in [Ca2+]i in TRPA1-deficient neurons [10]: failed to respond
- activation of TRPA1 expressed in HEK293t cells [11]: strongly activated
- potency on TRPA1 relative to mustard oil [11]: comparable to the chemically similar mustard oil
- EC50 [11]: 25 µM
- response of lysine mutant (K) [12]: activated
- activation of rTRPV1 (Ca2+-influx) [16]: not activated
- single channel conductance ([13]; inside-out patch, no Ca2+, 100 μM MIC or 10 μM CS, 3 patches/agent): 124±3 pS
- Ca2+-influx into a subset of DRG neurons [1]: rapid increase in [Ca^2+]i
- EC50 ([1]; read-out: EC50 of Ca2+-influx into AIC-sensitive mouse DRG neurons (unit inferred)): 36 µM
- EC50 [1, 19]: 36 µM
- response of mutant 3C [15]: significantly reduced responses

Molecule: CC(C)c1ccc(NC(=O)Cn2cnc3c2c(=O)n(C)c(=O)n3C)cc1
- noxious effects of CN, CS, ammonia, bromoacetone and isocyanates in vivo [17]: blocked the noxious effects
- frequency of nocifensive responses to HDI, CN, CS applied to the eye ([8]; HC-030031 300 or 50 mg/kg i.p., one hour before, 100 mM toxicant): dramatically reduced
- nocifensive behavior (flinching, lifting, licking of the paw) [18]: greatly reduced
- activation of TRPA1 by mustard oil and other reactive chemical stimuli in vitro [2]: blocked
- block of activation of TRPA1 by various toxicants [3]: block activation of TRPA1
- CS-induced neuronal Ca2+-influx [4]: blocked
- CS, CN or HDI (10 μM)-induced Ca2+ influx into DRG neurons ([4]; HC-030031 100 μM, incubated 5-30 min): absent
- IC50 ([4]; read-out: IC50 of inhibition of [Ca2+]i induced by 10 μM CN): 0.884 µM
- IC50 ([4]; read-out: IC50 of inhibition of [Ca2+]i induced by 10 μM CS): 4.5 µM
- IC50 ([4]; read-out: IC50 of inhibition of [Ca2+]i induced by 10 μM HDI): 74 µM
